Screening data as filed in PubChem BioAssay.
PKA-R1A activ: PKA-R1A complex activation. activation, % at 11.4 µM. PKA-R1A dissociation, Cy5-IP20 fluorescence polarization; scaled: DMSO 0%, 113 µM cGMP 100%. P00514+P68181. AID 504707. actives 0.083% (n = 340,000);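 active = percent activation above the mean of all tested compounds plus 3 SD, cut at about 19% in these data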;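 also: higher means more PKAc released from R1A so a rise in polarization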
PKA-R2B act: activates the human PKA-R2B holoenzyme complex. P22694+P31323. PKA-R2B holoenzyme dissociation, Cy5-IP20 fluorescence polarization; R2B truncated from residue 108, S112A mutant; 0% DMSO only, 100% 113 µM cGMP. activation, % at 11.4 µM. actives 0.079% (n = 340,000). AID 504700;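 active = activation above a cutoff set at the mean over all compounds plus 3 SD, cut at about 18% in these data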;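 also: higher means more holoenzyme dissociation and a rise in polarization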
Granule exo inh: lytic granule exocytosis inhibition; TALL-104 LAMP-1 surface exposure, flow cytometry; cells stimulated with thapsigargin and PMA; inhibition, % at 10 µM; actives 0.66% (n = 360,000);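 active = inhibition above about 55%, limit read from the data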
p-CIP stab down: compounds decreasing mouse p/CIP protein stability; F442A p/CIP-EGFP cells, EGFP fluorescence, 16 h; actives 0.01% (n = 290,000); AID 1984; decrease of EGFP signal, % at 10 µM; Q05BA5;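 active = EGFP signal decrease of at least 30% at 10 µM or well 3 SD below plate mean, unless failing retest; inactive = the rest, including hits failing retest or dose response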
Yeast UUG start-1: alters start codon recognition fidelity in yeast; AID 602363; activity score, % at 18.7 µM; 350,000 tested, 0.13% active; S. cerevisiae UUG-firefly luciferase reporter, luminescence/redox ratio;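 active means replicate mean at a twofold rise or more, about +100% in these data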;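 further: firefly luciferase made from a UUG start codon reports start codon fidelity; reporter light over untreated wells divided by growth signal over untreated wells; some hits fall short of that in this replicate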
ABCB6 inh MLPCN: blocks the human ABCB6 transporter; Q9NP58; K562-ABCB6 porphyrin accumulation, flow cytometry, 1 h; active compounds read low; fluorescence ratio to DMSO, % at 10 µM; actives 0.19% (n = 360,000);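 active = fluorescence ratio to DMSO below 75%, the collection mean minus 3 SD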;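 also: signal is porphyrin accumulated inside mitochondria; 100% equals median channel fluorescence of DMSO control wells; lower ratio means ABCB6 inhibition with less porphyrin fluorescence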
Yeast UUG start-2: yeast start codon fidelity modulation; AID 652061; S. cerevisiae UUG-start firefly luciferase, luminescence, 4 h; 100% means double the DMSO signal; 540 tested, under 10 active; activation, % at 38 µM; shares compounds with Yeast UUG start-1;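 active = signal increase whose fitted curve reaches an absolute level of 40 at a concentration under 10 µM; inactive = activity opposite to the expected increase, or the rest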
Active calls of the source: *; i = inactive; x = not tested or not shown. This is a sample that favours compounds with a hit; in the whole collection about 0.94% have one here.

PKA-R1A activ | PKA-R2B act | Granule exo inh | p-CIP stab down | Yeast UUG start-1 | ABCB6 inh MLPCN | Yeast UUG start-2 | compound
x | x | x | x | -9 | x | x | CC(C)CC#Cc1cnc2c(c1)C(=O)N([C@H](C)CO)C[C@@H](C)[C@@H](CN(C)C(=O)Cc1ccncc1)O2
-2 | -7 | -4 | -19 | -11 | 101 | x | O=C(CNC(=O)c1ccccc1F)NCCc1ccc(Cl)cc1
12 | 1 | -3 | 0 | 517* | 97 | 2 | O=C(CNC(=O)c1ccccc1F)NCCOc1cccc(Cl)c1Cl
x | x | x | x | -11 | x | x | C[C@H](NC(=O)C[C@H]1CC[C@H](NC(=O)C2CCOCC2)[C@H](CO)O1)c1ccccc1
-9 | -6 | 14 | 8 | active | 94 | -2 | Cc1cc(Nc2ccc(Cl)cc2)nc(NCc2ccccc2)n1
x | x | x | x | -14 | x | x | C[C@H]1CN([C@@H](C)CO)C(=O)c2cc(-c3ccccc3)cnc2O[C@@H]1CN(C)C(=O)Cc1ccccn1
x | x | x | x | 18 | x | x | C[C@H]1CN([C@@H](C)CO)C(=O)c2cc(NS(=O)(=O)c3ccccc3)ccc2O[C@@H]1CN(C)S(=O)(=O)c1ccccc1
x | x | x | x | -16 | x | x | CN1CCN(C(=O)C[C@@H]2C[C@H]3c4cc(NC(=O)Nc5ccccc5F)ccc4O[C@H]3[C@@H](CO)O2)CC1

Further compounds
PKA-R1A activ | PKA-R2B act | Granule exo inh | p-CIP stab down | Yeast UUG start-1 | ABCB6 inh MLPCN | Yeast UUG start-2 | compound
-4 | -1 | -1 | x | -15 | 98 | x | COC(=O)C[C@@H]1C[C@H]2c3cc(NC(=O)CC4CC4)ccc3O[C@H]2[C@@H](CO)O1
x | x | x | x | 57* | x | i | COc1ccc(NC(=O)Nc2ccc3c(c2)[C@@H]2C[C@@H](CC(=O)NCC4CC4)O[C@@H](CO)[C@@H]2O3)cc1
x | x | x | x | 61* | x | i | O=C(Nc1ccc2c(c1)[C@@H]1C[C@@H](CC(=O)N3CCc4ccccc4C3)O[C@@H](CO)[C@@H]1O2)Nc1ccccc1F
x | x | x | x | 119* | x | i | COC(=O)C[C@H]1C[C@@H]2c3cc(NC(=O)CC4CC4)ccc3O[C@@H]2[C@@H](CO)O1
x | x | x | x | -2 | x | x | COc1ccc(NC(=O)Nc2ccc3c(c2)[C@H]2C[C@H](CC(=O)NCC4CC4)O[C@H](CO)[C@H]2O3)cc1
x | x | x | x | 75* | x | i | O=C(C[C@@H]1C[C@H]2c3cc(NC(=O)NC4CCCCC4)ccc3O[C@H]2[C@H](CO)O1)NCc1ccccn1
x | x | x | x | -11 | x | x | CC(C)(O)C#Cc1ccc([C@H]2[C@@H](CO)N3CCCCN(C(=O)c4ccncc4)C[C@@H]23)cc1
x | x | x | x | 0 | x | x | C[C@@H]1CCCCO[C@H](CN(C)C(=O)c2ccncc2)[C@@H](C)CN([C@@H](C)CO)C(=O)c2cc(NC(=O)CCC(F)(F)F)ccc2O1

Laid out differently: results already given
> O=C(Nc1ccc2c(c1)[C@@H]1C[C@@H](CC(=O)N3CCc4ccccc4C3)O[C@@H](CO)[C@@H]1O2)Nc1ccccc1F
- PKA-R1A activ = x
- PKA-R2B act = x
- Granule exo inh = x
- p-CIP stab down = x
- Yeast UUG start-1 = 61*
- ABCB6 inh MLPCN = x
- Yeast UUG start-2 = i
> CC(C)(O)C#Cc1ccc([C@H]2[C@@H](CO)N3CCCCN(C(=O)c4ccncc4)C[C@@H]23)cc1
- PKA-R1A activ = x
- PKA-R2B act = x
- Granule exo inh = x
- p-CIP stab down = x
- Yeast UUG start-1 = -11
- ABCB6 inh MLPCN = x
- Yeast UUG start-2 = x
> COC(=O)C[C@@H]1C[C@H]2c3cc(NC(=O)CC4CC4)ccc3O[C@H]2[C@@H](CO)O1
- PKA-R1A activ = -4
- PKA-R2B act = -1
- Granule exo inh = -1
- p-CIP stab down = x
- Yeast UUG start-1 = -15
- ABCB6 inh MLPCN = 98
- Yeast UUG start-2 = x

New compounds follow.
PKA-R1A activ | PKA-R2B act | Granule exo inh | p-CIP stab down | Yeast UUG start-1 | ABCB6 inh MLPCN | Yeast UUG start-2 | compound
x | x | x | x | 39* | x | i | O=C(O)C[C@H]1C[C@H]2c3cc(NC(=O)c4ccc5c(c4)OCO5)ccc3O[C@H]2[C@@H](CO)O1
-11 | -1 | -1 | -1 | 322* | 111 | 3 | CCN(CC)S(=O)(=O)c1ccc(C(=O)Nc2cc(C)cc(C)c2)cc1
-12 | -12 | -2 | 3 | 1 | 98 | x | CCN(CC)S(=O)(=O)c1cccc(C(=O)Nc2cc(C)cc(C)c2)c1
x | x | x | x | 7 | x | x | CCCNC(=O)N1[C@H](CO)[C@H]2c3ccccc3N(C)C[C@H]21
x | x | x | x | 3 | x | x | C[C@H](CO)N1C[C@H](C)[C@@H](CN(C)S(=O)(=O)c2ccc(F)cc2)Oc2ccc(NC(=O)CCN3CCOCC3)cc2CC1=O
x | x | 1 | -12 | 180* | 98 | -7 | O=C(CN1c2ccccc2Sc2ccccc21)N/N=C/c1ccc(Cl)cc1
x | x | x | x | 4 | x | x | COc1ccccc1S(=O)(=O)N[C@H]1CC[C@H](CCNC(=O)C2CCCC2)O[C@@H]1CO
-7 | -10 | 1 | -2 | 516* | 95 | 0 | COc1cc(C2CC(=O)C=C(O)C2)cc(OC)c1OC (stereo not drawn)
-6 | -3 | 0 | -7 | x | 87 | x | COc1ccc(C2CC(=O)C=C(O)C2)cc1 (stereo not drawn)
x | x | x | x | 3 | x | x | C[C@H](CO)N1C[C@H](C)[C@@H](CN(C)C(=O)C2CC2)Oc2cc(-c3cncnc3)ccc2S1(=O)=O
